The results in this text go back to patent US10828301B2, “2,4-pyrimidinediamine compounds and their uses” (Rigel Pharmaceuticals, Inc, priority 2002, dated 2020).

The subject of series [1] is FcεR1-mediated degranulation in mast cells. Nature of the series: FcεRI-mediated (anti-IgE induced) degranulation assay in mast cells. The following applies: Mast cell; range stated for the whole listed group of compounds; read-out: inhibition of FcεR1-mediated degranulation in mast cells (IC50s). It is filed as cell-based.
In series [2] the test system is cultured human mast cells (CHMC). Nature of the series: CHMC low cell density IgE activation: tryptase and LTC4 assays. The class given is cell-based. Particulars: anti-IgE activation, tryptase readout. As for the experimental part: Pellet CHMC cells (980 rpm, 10 min) and resuspend in pre-warmed MT. Add 65 ul of cells to each 96-well plate. Depending on the degranulation activity for each particular CHMC donor, load 1000-1500 cells/well. Mix four times followed by a 1 hr incubation at 37° C. […] Stimulate cells by adding 25 ul of 6× anti-IgE solution to the appropriate plates. Add 25 ul MT to un-stimulated control wells. Mix twice following addition of the anti-IgE. Incubate at 37° C. for 30 minutes. […] Spin plates at 1000 rpm for 10 min to pellet cells. Transfer 25 ul of supernatant to a 96-well black bottom plate and add 100 ul of freshly diluted tryptase substrate solution to each well. Incubate plates at room temperature for 30 min.
Leukotriene C4 (LTC4) is also quantified using an ELISA kit on appropriately diluted supernatant samples (determined empirically for each donor cell population so that the sample measurement falls within the standard curve) following the supplier's instructions.

The test system of series [3] is bone marrow derived mast cells (BMMC). Nature of the series: BMMC high cell density IgE activation: degranulation (hexosiminidase, histamine), leukotriene (LTC4) and cytokine (TNFalpha, IL-6) assays. The class given is cell-based. Particulars: Mus musculus, anti-IgE activation. As for the experimental part: After sensitizing, cells are counted, pelleted (1000 rpm, 5-10 minutes), and resuspended at 1-3×10^6 cells/ml in MT buffer. Add 100 ul of cell suspension to each well and 100 ul of compound dilutions. The final vehicle concentration is 0.5% DMSO. Incubate at 37° C. (5% CO2) for 1 hour. After 1 hour of compound treatment, stimulate cells with 6× stimulus (60 ng/ml DNP-BSA). Mix wells with the cells and allow plates to incubate at 37° C. (5% CO2) for one hour. After 1 hour incubation, pellet cells (10 minutes, 1000 RPM) and collect 200 ul per well of the supernatant, being careful not to disturb pellet, and transfer to a clean tube or 96-well plate. Place the supernatant plate on ice. During the 4-5 hour step (see next) perform the hexosiminidase assay. Resuspend cell pellet in 240 ul WEI-conditioned media containing 0.5% DMSO and corresponding concentration of compound. Incubate BMMC cells for 4-5 hours at 37° C. (5% CO2). After incubation, pellet cells (1000 RPM, 10 minutes) and collect 225 ul per well and place in −80° C. until ready to perform ELISAS. ELISAS are performed on appropriately diluted samples (determined empirically for each donor cell population so that the sample measurement falls within the standard curve) following the supplier's instructions.
Add 50 uL of BMMC cell supernatant (see above) to the hexoseaminidase substrate, place at 37° C. for 30 minutes and read the plate at 5, 10, 15, and 30 minutes on a spectrophotometer.

For series [4] the following is noted: 14-day oral toxicity study, mouse, 300 mg/kg. As for the experimental part:
Several non-GLP pilot toxicity studies have been conducted in rodents. […] In a 14-day oral toxicity study in the mouse was conducted with doses of 100, 300 and 1000 mg/kg.

Series [5] in a line: Sheep model of allergic asthma (Ascaris suum challenge). It is filed as in vivo. Particulars: 30 mg/sheep, pretreatment 60 min, 45% PEG400/55% citrate buffer. How it is done: Sheep develop bronchoconstriction within minutes of exposure to inhaled antigen (Ascaris suum), with maximal airflow obstruction during the early allergic response (EAR). Release of preformed mast cell mediators is likely responsible for this early phase of airflow obstruction. […] In the sheep, AHR develops a few hours following antigen challenge, and can persist for up to 2 weeks.
In the sheep model of allergic asthma, sheep are administered aerosols of test article via an endotracheal tube, followed by an aerosol challenge with antigen extracted from the roundworm, Ascaris suum, to which the sheep are naturally allergic. Allergen challenge leads to direct bronchoconstriction (both EAR and LAR) and a persistent non-specific AHR. These three characteristics are similar to those seen in human allergic asthmatics. The activity of the test agent is determined by changes in the lung resistance (RL), which is calculated from measurements of transpulmonary pressure, flow, and respiratory volume. […] The LAR is a less pronounced increase in RL, which starts approximately 5-6 hours following allergen challenge and is resolved by 8 hours post-challenge. Twenty-four hours after the challenge, a dose response to carbachol is measured to determine the AHR, which is expressed as the dose of carbachol required to increase RL by 400% over baseline. […]

pIC50: −log10 of the molar value. Read-outs that look alike come from different tables or passages of the source.

On to `O=C1COc2ccc(Nc3nc(Nc4cccc(O)c4)ncc3F)cc2N1` [Compound R908702, N4-(1,4-Benzoxazine-3-on-6-yl)-5-fluoro-N2-(3-hydroxyphenyl)-2,4-pyrimidinediamine], for which the pIC50 in series [1] is 5.78 to 7.52.

Take `CC(C)(CO)NC(=O)c1cc2cc(Nc3ncc(F)c(Nc4cccc(O)c4)n3)ccc2o1` [Compound R926715, 5-Fluoro-N2-[2-(2-hydroxy-1,1-dimethylethylamino)carbonylbenzofuran-5-yl]-N4-(3-hydroxyphenyl)-2,4-pyrimidinediamine]: in series [1], the pIC50 was 5.78 to 7.52.

In the case of `CC(C)(C)C(=O)Nc1cccc(Nc2ncc(F)c(Nc3cccc(O)c3)n2)c1` [Compound R940275, N2-(3-tert-Butylcarbonylaminophenyl)-N4-(3-hydroxyphenyl)-5-fluoro-2,4-pyrimidinediamine], the pIC50 in series [1] is 5.78 to 7.52.

`COc1cc(Nc2ncc(F)c(Nc3ccc4c(c3)OCCO4)n2)cc(OC)c1` [Compound R926791, N2-(3,5-Dimethoxyphenyl)-N4-(3,4-ethylenedioxyphenyl)-5-fluoro-2,4-pyrimidinediamine]: the pIC50 in series [2] is 6.63; in series [3] (IL-6 release, read-out: BMMC anti-IgE IL-6 IC50), greater than 7.25; in series [3] (LTC4 release, read-out: BMMC anti-IgE LTC4 IC50) it was 6.05; in series [3] (TNF-alpha release, read-out: BMMC anti-IgE TNF-alpha IC50), 6.69; in series [3] (hexosaminidase release, read-out: BMMC anti-IgE hexos IC50), 7.19; in series [3] (histamine release, read-out: BMMC anti-IgE histamine IC50), greater than 7.25. For the same compound, in series [1], the pIC50 is 5.78 to 7.52.

For the compound `Nc1cccc(Nc2ncc(F)c(Nc3cccc(N)c3)n2)c1` [Compound R921302, N2,N4-Bis(3-aminophenyl)-5-fluoro-2,4-pyrimidinediamine], in series [4], the findings result is listed as “histopathological changes in the vulva”. In addition, in series [5], the “EAR (% inhibition)” value is listed as “unaffected”; the “LAR (% inhibition)” value was “blocked the LAR and AHR”. The pIC50 in series [1] is 5.78 to 7.52.

In the case of `Fc1cnc(Nc2cccc(-c3cnco3)c2)nc1Nc1ccc2c(c1)OCCO2` [Compound R926813, N4-(3,4-Ethylenedioxyphenyl)-5-fluoro-N2-[3-(1,3-oxazol-5-yl)phenyl]-2,4-pyrimidinediamine], the pIC50 in series [1] is 5.78 to 7.52.

Regarding `O=C1COc2ccc(Nc3ncc(F)c(Nc4cccc(O)c4)n3)cc2N1` [Compound R909268, N2-(1,4-Benzoxazin-3-on-6-yl)-5-fluoro-N4-(3-hydroxyphenyl)-2,4-pyrimidinediamine], in series [1], the pIC50 was 5.78 to 7.52.

Regarding `OCCOc1ccc(Nc2ncc(F)c(Nc3ccc4c(c3)OCCO4)n2)cc1` [Compound R945144, N4-(3,4-Ethylenedioxyphenyl)-5-fluoro-N2-[4-(2-hydroxyethyloxy)phenyl]-2,4-pyrimidinediamine], the pIC50 in series [1] was 5.78 to 7.52.
